Measurements taken from patent US20070249807A1.

Target: human plasma kallikrein (human) (UniProt P03952)
Assay: cell-based or functional assay

specific activity in the standard inhibitory assay used for PEP-1: 0.4 KIU/mg
Substance: aprotinin (from UniProt P00974 36-93)
